From PubChem BioAssay AID485317 (Broad Institute, 2010)
The entries are a selection whose mix differs from that of the whole data set. Activity calls are given as the source filed them.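 How the source made its calls: active means mean replicate inhibition above about 79%, with every replicate also reaching it (limit read from the data); inconclusive means only one of the two criteria met; inactive means mean below limit and not every replicate reaching it.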

Sequences of proteins named here, by UniProt entry; tags and fusion partners are left off.
UniProt P55789, whole entry: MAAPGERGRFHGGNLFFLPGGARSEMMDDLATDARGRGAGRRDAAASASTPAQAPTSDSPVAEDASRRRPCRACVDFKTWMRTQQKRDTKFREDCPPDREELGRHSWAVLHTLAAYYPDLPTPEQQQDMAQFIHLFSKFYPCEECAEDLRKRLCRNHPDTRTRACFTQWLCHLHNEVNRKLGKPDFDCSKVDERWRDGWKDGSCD

What follows are compounds tested against FAD-linked sulfhydryl oxidase ALR (Homo sapiens) (UniProt P55789) (assay: ALR-catalysed DTT oxidation blockers – biochemical, H2O2 detection, HRP-luminol luminescence, single point, primary screen (AID 485317)). Settings: purified ALR, hits give high values, concentration not given here.
For O=C(NCC1(N2CCOCC2)CCCCC1)c1cc2ccccc2o1, the inhibition was inactive: -8.63%. For CSc1ccccc1C(=O)NCC1(N2CCCCC2)CCCCC1, the inhibition was inactive: -15.4%. With COc1ccc(C(=O)NCC2(N3CCCCC3)CCCCC2)cc1 the inhibition was inactive: 3.93%. With COc1ccc(C(=O)NCC2(N3CCCCC3)CCCCC2)c(OC)c1OC the inhibition was inactive: -5.6%. CC(C)(C)OC(=O)N1CCC(N(C(=O)c2ccccc2)c2ccc(F)cc2)CC1 was tested, and the inhibition was inactive: -5.78%. With O=C(NCC1(N2CCCCC2)CCCCC1)c1ccc(=O)[nH]c1 the inhibition was inactive: -4.86%. O=C(NCC1(N2CCCCC2)CCCCC1)c1cccs1 was tested, and the inhibition was inactive: -0.742%. In the case of COc1cc(C(=O)NCC2(N(C)C)CCCCC2)ccc1OC(F)F, the inhibition was inactive: 0.793%. For CCOC(=O)N1CCC(Nc2cccc(C)c2)CC1, the inhibition was active: 98.4%. For Cc1ccc(OCC(C)C)c(CN(CCCl)CCCl)c1, the inhibition was inactive: 11.8%. In the case of O=C(NCC1(N2CCCCC2)CCCCC1)c1ccc(F)cc1, the inhibition was inactive: -8.98%. With COc1ccc(NC2CCN(CCc3ccccc3)CC2)c(OC)c1 the inhibition was active: 99.3%. In the case of CCOC(=O)N1CCC(Nc2ccc(F)cc2)CC1, the inhibition was active: 99.3%. With CCOc1ccc(C)cc1CN(CCCl)CCCl the inhibition was inactive: 26.4%. For COc1cc(C(=O)NCC2(N3CCCCC3)CCCCC2)ccc1OC(F)F, the inhibition was inactive: -2.32%. In the case of O=C(NCC1(N2CCOCC2)CCCCC1)c1cc(=O)[nH]c2ccccc12, the inhibition was inactive: -8.66%. With CN1CCN(CCOC(=O)C(O)(c2ccccc2)c2ccccc2)CC1 the inhibition was inactive: -9.24%. For COc1ccc(NC2CCN(C(=O)OC(C)(C)C)CC2)cc1, the inhibition was active: 86.1%. In the case of O=C(NCC1(N2CCCCC2)CCCCC1)c1cccc(C(F)(F)F)c1, the inhibition was inactive: 1.07%. For CCN1CCC(Nc2ccc(Cl)cc2)CC1, the inhibition was inactive: 48%. With N#CC1(Nc2ccccc2)CCN(CCc2ccccc2)CC1 the inhibition was inactive: -33.5%. In the case of O=C(NCC1(N2CCCCC2)CCCCC1)c1cccc([N+](=O)[O-])c1, the inhibition was inactive: 7.16%. With CCCOc1ccc(C(=O)NCC2(N(C)C)CCCCC2)cc1OC the inhibition was inactive: -2.04%. O=C(NCC1(N2CCCCC2)CCCCC1)c1cncc(Br)c1 was tested, and the inhibition was inactive: -7.73%. With CN1CCC(Nc2cccc(F)c2)CC1 the inhibition was inactive: 24.6%. For COc1cc(OC)c(C(=O)NCC2(N(C)C)CCCCC2)cc1OC, the inhibition was inactive: -9.22%. For O=C(NCC1(N2CCOCC2)CCCCC1)c1cc(F)c(F)cc1Cl, the inhibition was inactive: -7.02%. COc1ccc(CN(CCCl)CCCl)cc1Cl was tested, and the inhibition was inactive: 69.6%.
